This is an account of results in patent publication US5830452A, “Method for enhancing the anti-tumor therapeutic index of interleukin-2” (Chiron Corporation, priority 1994, dated 1998).

Series [1] has as its system Meth A tumor. The series is described as follows: Meth A: effect of drug holiday, continuous infusion combined with i.v. bolus, Table 3. The series is classed as in vivo, mice. The conditions noted are these: for toxicity without drug holiday: mouse, in vivo. The procedure:
An experiment was performed to determine how the drug holiday affected the IL-2 toxicity. IL-2 was continuously administered to mice at either of two dose levels. Bolus IL-2 doses were administered (i.v.) to these mice to elevate their IL-2 blood concentration above the continuous infusion level. This administration schedule creates blood concentration peaks, but without the troughs.
* Seven day i.p. pumps combined with i.v. bolus dosing QD × 7.

The test system of series [2] is Meth A tumor. The series is described as follows: Meth A: continuous infusion versus bolus dosing, Table 4. The series is classed as in vivo, mice. The procedure:
An experiment was performed to compare continuous infusion with bolus dosing. As shown below in Table 4, three IL-2 concentrations were administered via continuous infusion or bolus dosing and the results compared.
to IP bolus dosing in Meth A.

For series [3] the following is noted: i.v.; cited from earlier work.
Series [4] relates to strongly immunogenic murine model. The conditions noted are these: 100 IU s.c. around the tumor; cited from earlier work.
For another series, the system named is MCA-105 sarcoma. The conditions noted are these: thrice daily injections up to 18,000 I.U.s/day; cited from earlier work.
The next series relates to tumor. The conditions noted are these: several hundred to several thousand IU, i.p., i.v. or s.c.; cited from earlier work.
Series [5] is described as follows: Plasma clearance of PEG-IL-2 and IL-2 and lethality (FIG. 2). The series is classed as in vivo, mice. The conditions noted are these: single i.v. bolus, FIG. 2. Here is the method: FIG. 2 is a plot of concentration of PEG IL-2 in I.U./ml plasma in mice versus time (hours) for three different dosages of IL-2 given as a single iv bolus.
Additionally, the drug must be below a certain level by a certain time before the next dose is given. The blood level is preferably below 10 I.U./ml plasma, more preferably below 1 I.U./ml plasma, most preferably it is substantially eliminated. The specific time may vary from patient to patient, however, it is generally between 48 and 96 hours.
The purpose of this experiment was to define the peak height and shape of the IL-2 blood concentration curve. Unmodified IL-2 (IL-2) and PEG modified IL-2 (having apparent molecular weights of 95 kD and 160 kD) were given to the mice in one bolus dose. […] Consequently, one can determine the effect of dose and duration by administering IL-2 and PEG-IL-2 molecules that will remain in the body for varying lengths of time.

Series [6] in a line: Pharmacokinetic parameters of computer-driven IL-2 infusion versus PEG-IL-2 bolus, Table 8. Type of series: in vivo, Fisher rats.
Series [7] is described as follows: Maximum tolerated dose in the patient. Type of series: in vivo. The conditions noted are these: s.c. The source says: As stated above, the blood level must go above a specific threshold. This threshold is the baseline necessary for efficacy and can be as high as is tolerated by the patient. For example, the physician's observations may set the maximum tolerated dose (MID) based on observable signs of toxicity, such as nausea, hypotension, weight gain, fever, etc. Since the disease being treated is typically fatal, it is important to administer as much IL-2 as can be tolerated so that maximum efficacy is possible. This threshold may vary from patient to patient, however, the MTD for a single dose of unmodified IL-2, irrespective of any other dose is typically from 5 to 10 million I.U./kg. The maximum tolerated dose for an i.v. polyethylene glycol modified IL-2 of approximately 160 kD apparent molecular weight is between 16 and 18 million I.U./kg. When polyethylene glycol modified IL-2 is administered s.c. a local reaction (redness and inflammation) is observed at approximately 3.6 million I.U./kg. The MID for Q 8 hours, for 1-5 days (14 total doses in which each dose is delivered by a 15 minute infusion) is approximately 720,000 and 800,000 I.U./kg. […] This time is preferably between 12 hours and 80 hours, more preferably between 24 and 60 hours.

For the next series, the system named is murine tumor. The conditions noted are these: murine tumor studies; cited from earlier work.
Where [8] appears, read: CI 0.28 mg/kg + IV 5 mg/kg QD×7.
Setting [9] is: CI 0.28 mg/kg, seven day i.p. pump.
[10] abbreviates: CI 0.57 mg/kg + IV 5 mg/kg QD×7.
Setting [11] is: CI 0.57 mg/kg, seven day i.p. pump.
[12] abbreviates: PEG-IL-2 1.6 mg/kg bolus, IL-2 38.4 mg/kg infused over 48 hours, n = 4.

Take “IL-2: Unmodified interleukin-2, recombinant or natural human; lymphokine, T cell growth factor”: the “% TGI” value in the series on Meth A tumor [1] (setting [8]) is recorded as 83%; in the series with Meth A tumor [1] (setting [9]), 55%; in the series with Meth A tumor [1] (setting [10]), 90%; in the series on Meth A tumor [1] (setting [11]), 49%; in the series on Meth A tumor [1] (IV 5 mg/kg QD×7), 88%; in the series on Meth A tumor [2] (0.3 mg/kg/D, CI (IP)), 21%. Moreover, the “% TGI” value came to 38% in the series on Meth A tumor [2] (0.3 mg/kg/D, IP bolus); 31% in the series on Meth A tumor [2] (0.6 mg/kg/D, CI (IP)); 60% with Meth A tumor [2] (0.6 mg/kg/D, IP bolus); 81% in the series on Meth A tumor [2] (1.2 mg/kg/D, CI (IP)); 90% in the series with Meth A tumor [2] (1.2 mg/kg/D, IP bolus). Moreover, the Cures in the series with Meth A tumor [1] (setting [8]) is reported as 1/2; with Meth A tumor [1] (setting [9]) it was 0/5; with Meth A tumor [1] (setting [10]), 1/3; with Meth A tumor [1] (setting [11]) it was 0/5; with Meth A tumor [1] (IV 5 mg/kg QD×7), 0/5; in the series on Meth A tumor [2] (0.3 mg/kg/D, CI (IP)), 0/15. The Cures in the series on Meth A tumor [2] (0.3 mg/kg/D, IP bolus) is reported as 1/15; in the series with Meth A tumor [2] (0.6 mg/kg/D, CI (IP)), 0/12; in the series with Meth A tumor [2] (0.6 mg/kg/D, IP bolus), 1/15; with Meth A tumor [2] (1.2 mg/kg/D, CI (IP)) it was 1/13; with Meth A tumor [2] (1.2 mg/kg/D, IP bolus), 4/15. Moreover, the results for the “toxicity without drug holiday” value with Meth A tumor [1] and with Meth A tumor [1] (listed as IL2) were “a drug holiday is necessary to reduce toxicity” and “No drug holiday period increases IL2 toxicity”, respectively. For the same substance, in series [3], the “share of the dose disappearing from the circulation in the first phase” value is given as “approximately 75%”. Also, the tumor growth inhibition entry in series [4] is “significant tumor growth inhibition”. The “effect on established metastases” value with MCA-105 sarcoma was “induced regression of metastases”. The “efficacy at low doses” value in the series with tumor is given as “little efficacy”.
In the case of “160 kD PEG IL-2: PEG (7,000 MW) modified IL-2 having an apparent molecular weight of 160 kD”, in series [5], the “mice dying when IL-2 is not cleared until 96 hours” value was 5/5 and the “mice dying when PEG-IL-2 is cleared after 82 hours” value is 0/5. Also, in [6] (setting [12]), the “α Half life” value turned out to be 0.778 ± 0.128 h and the “β Half life” value turned out to be 6.16 h. Also, in [6] (PEG-IL-2 1.6 mg/kg bolus, IL-2 38.4 mg/kg infused over 48 hours, n = 4, trapezoidal, to time infinity), the AUC is on record as 6.59 ± 0.45 10^5 U/ml-hr. In addition, the “PK parameters, PEG-IL-2 versus IL-2” value in series [6] (initial blood levels, half lives, areas under the curves) was “not significantly different”. The “dose at which a local reaction (redness and inflammation) is observed” value in series [7] is recorded as “approximately 3.6 million I.U./kg”. The “anti-tumor activity versus IL-2 on a dose per dose basis” value in the series on murine tumor was “approximately 24 -fold”.
